Experimental findings from ChEMBL document CHEMBL4011591, “Discovery and pharmacological evaluation of a novel series of adamantyl cyanoguanidines as P2X7 receptor antagonists” (Eur J Med Chem, 2017) are described below.

Chains of the proteins cited; added tags and fusions are not shown. Lines headed by an entry give the natural chain unless they say otherwise; changes in a name come on top.
UniProt Q99572: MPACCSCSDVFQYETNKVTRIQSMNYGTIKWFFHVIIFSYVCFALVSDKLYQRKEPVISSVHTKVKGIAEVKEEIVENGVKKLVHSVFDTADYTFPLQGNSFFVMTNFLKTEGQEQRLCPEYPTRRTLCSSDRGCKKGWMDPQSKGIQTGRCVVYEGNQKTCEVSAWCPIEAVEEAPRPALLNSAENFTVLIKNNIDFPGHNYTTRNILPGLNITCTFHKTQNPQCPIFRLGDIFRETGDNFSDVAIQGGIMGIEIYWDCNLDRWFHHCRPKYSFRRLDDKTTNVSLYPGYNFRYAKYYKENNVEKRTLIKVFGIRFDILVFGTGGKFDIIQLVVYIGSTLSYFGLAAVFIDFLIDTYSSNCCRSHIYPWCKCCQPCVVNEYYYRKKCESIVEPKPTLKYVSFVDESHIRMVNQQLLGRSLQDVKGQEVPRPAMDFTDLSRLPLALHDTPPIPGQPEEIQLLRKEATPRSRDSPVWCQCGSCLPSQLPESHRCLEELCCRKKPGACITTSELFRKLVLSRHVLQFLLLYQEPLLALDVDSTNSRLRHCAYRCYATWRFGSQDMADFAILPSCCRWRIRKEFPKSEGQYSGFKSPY

In test [1] the target is T1, P2X purinoceptor 7 (Homo sapiens, UniProt Q99572). Kind of test: Antagonist activity at P2X7 receptor in human THP1 cells assessed as inhibition of BzATP-induced YO-PRO-1 Iodide uptake measured every 30 secs for 1 hr by fluorescence assay. It counts as cell-based.
Test [2] concerns the target T1, P2X purinoceptor 7. As to the kind of experiment: Antagonist activity at P2X7 receptor in LPS-stimulated human THP1 cells assessed as inhibition of LPS/BzATP-induced IL-1beta release preincubated for 30 mins followed by BzATP addition measured after 30 mins by ELISA. Background: In an ELISA, binding on a coated surface is turned into a signal by an enzyme label.
In test [3] the target is T1, P2X purinoceptor 7. As to the kind of experiment: Antagonist activity at human P2X7 receptor expressed in 1321N1 cells assessed as inhibition of agonist-induced calcium flux pretreated for 3 mins followed by BzATP addition after 3 mins measured every 1 sec for 60 secs and at 5 secs interval throughout testing by Flou-4-AM dye based FLIPR assay. The class given is cell-based.

Test [4] has as its target T2, P2X purinoceptor 7 (Mus musculus, UniProt Q9Z1M0).
T2 sequence (Q9Z1M0 whole entry): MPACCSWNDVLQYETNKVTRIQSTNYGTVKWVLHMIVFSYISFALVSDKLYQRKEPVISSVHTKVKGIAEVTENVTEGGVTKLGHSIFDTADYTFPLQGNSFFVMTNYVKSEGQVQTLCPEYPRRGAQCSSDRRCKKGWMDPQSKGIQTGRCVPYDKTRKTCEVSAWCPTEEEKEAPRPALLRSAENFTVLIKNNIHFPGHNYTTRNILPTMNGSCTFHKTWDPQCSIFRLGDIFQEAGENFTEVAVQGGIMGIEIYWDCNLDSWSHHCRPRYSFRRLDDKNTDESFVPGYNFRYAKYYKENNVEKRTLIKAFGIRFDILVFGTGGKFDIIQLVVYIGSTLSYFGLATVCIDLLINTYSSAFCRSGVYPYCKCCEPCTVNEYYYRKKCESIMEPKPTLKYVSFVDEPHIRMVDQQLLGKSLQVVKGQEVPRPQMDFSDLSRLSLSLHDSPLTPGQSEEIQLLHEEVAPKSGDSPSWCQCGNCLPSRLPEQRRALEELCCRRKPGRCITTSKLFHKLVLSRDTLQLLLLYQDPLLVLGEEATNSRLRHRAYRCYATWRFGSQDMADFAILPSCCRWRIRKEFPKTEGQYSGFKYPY
As to the kind of experiment: Antagonist activity at mouse P2X7 receptor expressed in 1321N1 cells assessed as inhibition of agonist-induced calcium flux pretreated for 3 mins followed by BzATP addition after 3 mins measured every 1 sec for 60 secs and at 5 secs interval throughout testing by Flou-4-AM dye based FLIPR assay. The class given is cell-based. A general note: Calcium flux is commonly read through the fluorescence of an indicator in the cells.

Broadly, the IC50 is the concentration needed to halve the response being measured. For the compound `C[C@H](N/C(=N/C#N)Nc1cccc2ncccc12)c1ccccc1`, the IC50 at P2X purinoceptor 7 [1] was 93 nM; at P2X purinoceptor 7 [2], 9 nM; on P2X purinoceptor 7 [3] it was 9 to 11 nM; at P2X purinoceptor 7 [4] it was 9 to 11 nM.
